Laboratory results as given in PMC9858421 (Journal of Enzyme Inhibition and Medicinal Chemistry, 2023).

By UniProt entry, the sequences of proteins in these tests, tags left out.
UniProt P21796, whole entry: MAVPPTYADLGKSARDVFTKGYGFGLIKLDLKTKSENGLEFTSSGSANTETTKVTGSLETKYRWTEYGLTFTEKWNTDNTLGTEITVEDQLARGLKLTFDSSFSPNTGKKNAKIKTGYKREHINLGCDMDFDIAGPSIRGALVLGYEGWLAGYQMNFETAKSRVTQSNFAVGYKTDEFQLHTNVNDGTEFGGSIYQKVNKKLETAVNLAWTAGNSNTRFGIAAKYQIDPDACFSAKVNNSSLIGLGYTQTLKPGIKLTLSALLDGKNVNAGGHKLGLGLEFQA

Key:
[1] = biological target: hVDAC1 (Homo sapiens, UniProt P21796); assay: NanoDSF thermal shift; format: binding; conditions: hVDAC1 in LDAO; compared to hVDAC1 alone at 0% or 5% DMSO
[2] = tested on: VDAC1; conditions: PLB, cited from earlier work

| SMILES | Tm shift in NanoDSF (direction / significance, in words) [1] | Effect(s) on activity [2] | Effect(s) on activity ([2]; photoaffinity labelling, MST) |
| --- | --- | --- | --- |
| CC(=O)Oc1ccccc1C(=O)O [Aspirin] | increase the Tm | Reduces conductance Induces VDAC-HK II detachment |  |
| CCC(C)n1ncn(-c2ccc(N3CCN(c4ccc(OCC5COC(Cn6cncn6)(c6ccc(Cl)cc6Cl)O5)cc4)CC3)cc2)c1=O (stereo not shown) [Itraconazole] | not been confirmed as VDAC1 ligands; also recorded: no significant changes in Tm |  | Reduces conductance |

“Also recorded” adds a separate entry of the source. Like-named read-outs stand apart in the source and are kept apart here.
